This is an account of results in ChEMBL document CHEMBL4393708, “Pyridinylimidazoles as dual glycogen synthase kinase 3β/p38α mitogen-activated protein kinase inhibitors” (Eur J Med Chem, 2019).

The species named for this experiment is Homo sapiens. As to the kind of experiment: Selectivity ratio, Ratio of IC50 for human recombinant full length GSK3alpha to IC50 for human recombinant full length GSK3beta using YRRAAVPPSPSLSRHSSPHQ(pS)EDEEE as substrate preincubated with enzyme for 10 mins followed by substrate and 25 uM ATP addition measured after 60 mins by ADP-Glo luminescence assay. (ADP-Glo turns the ADP formed in a reaction into a luminescent signal.)

Turning to `CSc1nc(-c2ccc(F)cc2)c(-c2ccnc(NC(=O)C3CC3)c2)[nH]1`, the Ratio IC50 came out at 7.5. Regarding `CCc1nc(-c2ccc(F)cc2)c(-c2ccnc(NC(=O)C3CC3)c2)[nH]1`, the Ratio IC50 came to 8.6.
